# Test system: KPC (Klebsiella pneumoniae carbapenemase) producing K. pneumoniae
# Assay: Chequerboard assay (percentage kill from OD600, MIC and FIC) of 4-mer combination against KPC producing K. pneumoniae
# Format: cell-based
# Details: Example 4, backbone ceftazidime + colistin; drug alone
# From the text: Synergy is not predictable or expected when two or more actives are used in combination. […] One of the ways to assess whether synergy has been observed is to use the “chequerboard” technique. This is a well-accepted method that leads to the generation of a value called the fractional inhibitory concentration index (FICI). Orhan et al., J. Clin. Microbiol. 2005, 43(1):140 describes the chequerboard method and analysis in the paragraph bridging pages 140-141, and explains that the FICI value is a ratio of the sum of the MIC (Minimum Inhibitory Concentration) level of each individual component alone and in the mixture.
# FICI or fractional inhibitory concentration index is the sum of the FICs of each antimicrobial when used in combination. […]
# In this method, two antibiotics were “fixed” as part of a backbone whilst the two other antibiotics were varied over a doubling concentration scale beginning at the MIC (×1) for the effective dose in monotherapy against the organism being tested. The ΣFIC was then calculated as shown below. […]
# Synergy can be expressed as “ΣFIC≤0.25×n”. […]
# The bacteria were obtained from Ninewells Hospital and Medical School in Dundee, Scotland. […] The bacteria were measured for OD600 and readings of <0.25 were returned to the incubator. […]
structure (smiles),measurement,value
CC(C)(O/N=C(\C(=O)N[C@@H]1C(=O)N2C(C(=O)[O-])=C(C[n+]3ccccc3)CS[C@H]12)c1csc(N)n1)C(=O)O [Ceftazidime],MIC Monotherapy (X),32

# — patent US20260335307A1, “ANTIMICROBIAL COMBINATIONS” (Helperby Therapeutics Limited, priority 2022, published 2026)
